US20240199683A1, “ANDROGEN RECEPTOR MODULATORS” (priority 2021, published 2024)

The chains behind the UniProt entries cited, without tags or fusion partners.
UniProt P10275, whole entry: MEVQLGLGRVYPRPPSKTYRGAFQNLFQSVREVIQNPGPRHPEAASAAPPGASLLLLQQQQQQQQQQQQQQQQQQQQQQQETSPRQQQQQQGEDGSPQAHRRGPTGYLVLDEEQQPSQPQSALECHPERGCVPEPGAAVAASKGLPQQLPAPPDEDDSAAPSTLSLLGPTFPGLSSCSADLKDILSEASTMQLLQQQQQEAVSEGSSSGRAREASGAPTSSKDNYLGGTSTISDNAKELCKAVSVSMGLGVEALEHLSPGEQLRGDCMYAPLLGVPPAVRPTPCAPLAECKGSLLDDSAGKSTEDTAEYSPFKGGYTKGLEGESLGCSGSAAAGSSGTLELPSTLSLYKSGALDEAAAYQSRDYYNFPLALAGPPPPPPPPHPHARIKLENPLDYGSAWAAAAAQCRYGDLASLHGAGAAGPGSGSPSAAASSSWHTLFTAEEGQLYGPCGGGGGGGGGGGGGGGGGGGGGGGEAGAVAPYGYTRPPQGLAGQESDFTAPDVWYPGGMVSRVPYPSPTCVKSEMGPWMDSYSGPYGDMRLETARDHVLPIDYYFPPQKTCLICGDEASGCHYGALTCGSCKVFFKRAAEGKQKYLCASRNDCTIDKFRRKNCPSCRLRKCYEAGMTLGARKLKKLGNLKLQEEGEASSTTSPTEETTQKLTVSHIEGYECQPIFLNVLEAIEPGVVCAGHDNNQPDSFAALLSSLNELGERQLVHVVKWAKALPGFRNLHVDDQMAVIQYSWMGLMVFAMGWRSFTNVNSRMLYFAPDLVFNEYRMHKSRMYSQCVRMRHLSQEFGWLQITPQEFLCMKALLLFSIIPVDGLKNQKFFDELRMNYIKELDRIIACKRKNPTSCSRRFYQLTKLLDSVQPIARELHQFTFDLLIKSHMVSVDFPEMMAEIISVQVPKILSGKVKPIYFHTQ

How the values were obtained:
human AR = human AR (Homo sapiens, UniProt P10275); experiment: human AR antagonist assay (Indigo Biosciences); format: cell-based
androgen receptor = androgen receptor (Homo sapiens, UniProt P10275); experiment: Ki of Table A (method not described; AR binding assays mentioned generally)
[1] = Table A, values match the human AR antagonist assay

**Q.** Which IC50 (human AR; [1]) does the source give for `C[C@]12CC[C@@]3(C)C(=C1C[C@@H](O)C2)CC[C@H]1C[C@@H](O)CC[C@@H]13` here?
**A.** 4.8 µM

**Q.** How did the HillSlope (human AR; Table 3, antagonist mode) turn out when `CC(C)CCC[C@]12CC[C@@]3(C)C(=C1C[C@@H](O)C2)CC[C@H]1CC(=O)CC[C@@H]13` was run?
**A.** 0.6338

**Q.** And the IC50 (human AR; Table 3, antagonist mode)?
**A.** 0.696 µM

**Q.** What about the IC50 (human AR; [1]) of the same compound?
**A.** 0.696 µM

**Q.** What about the Ki (androgen receptor) of the same compound?
**A.** 1.7 µM
